We go through 1 compound from patent US20140045883A1, “ACK1 KINASE INHIBITION TO TREAT TRIPLE NEGATIVE BREAST CANCER” (H. Lee Moffitt Cancer Center and Research Institute, Inc., priority 2012, published 2014).

Protein sequences, listed by entry. Tags and fused reporters are not part of them. Lines headed by an entry give the natural chain unless they say otherwise; changes in a name come on top.
UniProt Q07912: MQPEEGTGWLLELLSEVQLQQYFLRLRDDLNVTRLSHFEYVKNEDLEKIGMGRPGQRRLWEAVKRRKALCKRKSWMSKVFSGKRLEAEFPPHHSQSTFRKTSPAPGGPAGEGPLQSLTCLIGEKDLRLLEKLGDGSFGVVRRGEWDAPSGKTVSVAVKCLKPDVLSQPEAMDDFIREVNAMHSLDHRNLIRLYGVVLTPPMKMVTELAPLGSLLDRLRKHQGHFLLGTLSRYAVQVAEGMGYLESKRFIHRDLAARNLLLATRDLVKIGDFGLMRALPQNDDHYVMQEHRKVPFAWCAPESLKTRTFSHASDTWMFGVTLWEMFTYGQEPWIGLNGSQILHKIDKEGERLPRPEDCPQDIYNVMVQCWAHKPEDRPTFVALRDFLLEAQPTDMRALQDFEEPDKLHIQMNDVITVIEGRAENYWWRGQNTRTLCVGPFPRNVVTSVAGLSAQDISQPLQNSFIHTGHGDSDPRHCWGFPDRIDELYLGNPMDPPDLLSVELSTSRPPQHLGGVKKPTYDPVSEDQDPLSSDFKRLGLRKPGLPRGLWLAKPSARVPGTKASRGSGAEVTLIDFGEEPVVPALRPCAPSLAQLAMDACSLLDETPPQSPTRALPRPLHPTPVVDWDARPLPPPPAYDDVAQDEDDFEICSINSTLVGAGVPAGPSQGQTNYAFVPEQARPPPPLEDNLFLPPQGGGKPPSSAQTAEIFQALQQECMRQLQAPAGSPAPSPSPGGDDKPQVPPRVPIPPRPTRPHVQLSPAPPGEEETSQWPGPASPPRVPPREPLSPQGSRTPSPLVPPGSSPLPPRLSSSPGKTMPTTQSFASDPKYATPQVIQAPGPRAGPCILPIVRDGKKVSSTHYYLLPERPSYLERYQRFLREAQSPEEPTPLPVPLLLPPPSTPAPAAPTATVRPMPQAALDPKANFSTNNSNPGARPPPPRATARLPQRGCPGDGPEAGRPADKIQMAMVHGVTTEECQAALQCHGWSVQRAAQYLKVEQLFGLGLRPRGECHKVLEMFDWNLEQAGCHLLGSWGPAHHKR

This test deals with purified Ack1 kinase (Homo sapiens, UniProt Q07912). Particulars: inhibitor 50 nM, Ack1 50 nM, 5 uM ATP, 1 hour.

Each structure is given as a SMILES string.

Consider `CCCS(=O)(=O)Nc1ccc(F)c(C(=O)c2c[nH]c3ncc(-c4ccc(Cl)cc4)cc23)c1F` [PLX4032, Vemurafenib], for which the “AKT Tyr176-phosphorylation (ELISA)” value is on record as “significant decrease”.
